Where two headings read alike, the source gives them in different places.
Tests used:
in vivo [1] = details: male, Sprague Dawley, rat, brain, iv, 0.2 mg/kg
in vitro [2] = details: human, microsomes, pH 7.4
[3] = brain:plasma ratio, IV
in vitro [4] = details: rat, brain homogenate, pH 7.4
CYP3A4 = CYP3A4 (Homo sapiens, UniProt P08684)
in vitro [5] = details: human, plasma, pH 7.4
P-gp = P-gp (Homo sapiens, UniProt P08183); details: dog, MDCK-MDR1
in vivo [6] = details: male, Sprague Dawley, rat, iv
in vitro [7] = details: mouse, plasma, pH 7.4
in vivo [8] = details: male, Sprague Dawley, rat, po, 10 mg/kg
in vitro [9] = details: cynomolgus monkey, plasma, pH 7.4
[10] = male, Sprague Dawley, rat, in vivo, po, 10 mg/kg
in vitro [11] = details: rat, plasma, pH 7.4
in vitro [12] = details: rhesus monkey, plasma, pH 7.4
in vitro [13] = details: dog, plasma, pH 7.4
[14] = microsomes

By UniProt entry, the sequences of proteins in these tests, tags left out.
UniProt P08684, whole entry: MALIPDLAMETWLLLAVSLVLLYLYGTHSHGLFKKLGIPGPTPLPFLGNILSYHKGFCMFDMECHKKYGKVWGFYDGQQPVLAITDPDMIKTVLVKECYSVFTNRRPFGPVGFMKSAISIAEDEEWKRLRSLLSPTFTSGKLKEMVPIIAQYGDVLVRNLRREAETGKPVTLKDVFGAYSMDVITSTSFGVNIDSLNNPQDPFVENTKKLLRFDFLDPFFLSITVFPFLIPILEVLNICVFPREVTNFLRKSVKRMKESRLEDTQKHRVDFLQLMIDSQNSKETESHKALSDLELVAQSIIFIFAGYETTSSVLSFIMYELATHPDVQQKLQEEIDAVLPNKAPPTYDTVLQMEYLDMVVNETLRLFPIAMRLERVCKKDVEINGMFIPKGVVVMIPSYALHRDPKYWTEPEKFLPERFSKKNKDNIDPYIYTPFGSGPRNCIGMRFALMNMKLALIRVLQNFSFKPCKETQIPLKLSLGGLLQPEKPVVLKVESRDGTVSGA
UniProt P08183, whole entry: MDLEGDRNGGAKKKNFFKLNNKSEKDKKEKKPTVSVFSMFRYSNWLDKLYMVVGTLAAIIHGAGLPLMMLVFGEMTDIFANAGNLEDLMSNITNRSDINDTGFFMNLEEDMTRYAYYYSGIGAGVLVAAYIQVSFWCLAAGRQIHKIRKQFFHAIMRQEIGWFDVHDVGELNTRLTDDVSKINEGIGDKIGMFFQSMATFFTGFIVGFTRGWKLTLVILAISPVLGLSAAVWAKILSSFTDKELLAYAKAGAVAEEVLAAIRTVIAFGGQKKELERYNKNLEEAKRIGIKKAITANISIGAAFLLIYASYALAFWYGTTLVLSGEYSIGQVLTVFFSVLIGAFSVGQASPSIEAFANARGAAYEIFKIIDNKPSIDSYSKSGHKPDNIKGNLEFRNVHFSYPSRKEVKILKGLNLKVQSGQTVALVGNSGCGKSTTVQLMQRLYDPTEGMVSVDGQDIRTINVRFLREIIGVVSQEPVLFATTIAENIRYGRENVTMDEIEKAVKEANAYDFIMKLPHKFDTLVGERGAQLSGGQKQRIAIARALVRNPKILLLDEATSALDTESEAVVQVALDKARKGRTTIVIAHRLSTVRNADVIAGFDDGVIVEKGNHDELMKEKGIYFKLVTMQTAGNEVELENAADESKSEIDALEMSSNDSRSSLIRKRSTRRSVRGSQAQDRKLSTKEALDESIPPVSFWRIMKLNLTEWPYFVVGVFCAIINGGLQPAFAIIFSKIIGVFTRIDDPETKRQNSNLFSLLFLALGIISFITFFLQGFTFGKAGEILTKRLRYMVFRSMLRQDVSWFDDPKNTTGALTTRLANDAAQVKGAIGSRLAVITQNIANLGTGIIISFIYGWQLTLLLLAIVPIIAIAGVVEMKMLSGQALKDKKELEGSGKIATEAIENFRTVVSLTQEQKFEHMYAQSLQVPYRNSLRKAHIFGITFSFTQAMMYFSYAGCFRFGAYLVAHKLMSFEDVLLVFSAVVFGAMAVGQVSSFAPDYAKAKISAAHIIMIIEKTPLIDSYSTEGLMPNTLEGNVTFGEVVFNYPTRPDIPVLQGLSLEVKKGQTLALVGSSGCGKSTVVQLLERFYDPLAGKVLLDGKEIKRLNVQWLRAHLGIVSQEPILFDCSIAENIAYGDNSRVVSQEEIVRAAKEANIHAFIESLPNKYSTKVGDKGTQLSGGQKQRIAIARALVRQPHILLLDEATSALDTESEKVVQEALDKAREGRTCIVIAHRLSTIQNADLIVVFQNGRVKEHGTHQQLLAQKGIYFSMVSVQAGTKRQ

**Q.** What does the source list for `Cn1ncc(S(=O)(=O)N2CCC(c3cn4ncnc4cc3Cl)CC2)c1Cl`?
**A.** Kp at […] (in vivo [1]): 0.34; CLint scaled (in vitro [2]): 41.7 mL/min/kg

**Q.** Which “Kp (rat)” value [3] does the source give for `Cc1ncc(S(=O)(=O)N2CCC(c3cn4ncnc4cc3Cl)CC2)s1` here?
**A.** Its value is 0.75.

**Q.** And the fraction unbound (in vitro [4])?
**A.** Its fraction unbound is 0.16.

**Q.** And the “Contribution (%)” value (CYP3A4)?
**A.** The value was 96.9%.

**Q.** And the fraction unbound (in vitro [5])?
**A.** Its fraction unbound is 0.2.

**Q.** And the “AUCinf,u” value (Sprague-Dawley, rat, in vivo, po, 10 mg/kg)?
**A.** The value was 0.882 µM·h.

**Q.** And the “AUCinf,u/Dose” value (Sprague-Dawley, rat, in vivo, po, 100 mg/kg)?
**A.** The value was 29.4 nM·kg·h/mg.

**Q.** And the “AUCinf,u/Dose” value (rat PO 3 mg/kg)?
**A.** The value was 73.3 nM·kg·h/mg.

**Q.** And the “AUCinf,u/Dose” value (rat PO 10 mg/kg)?
**A.** Its value is 88.2 nM·kg·h/mg.

**Q.** And the “AUCinf,u/Dose” value (rat PO 30 mg/kg)?
**A.** Its value is 59.9 nM·kg·h/mg.

**Q.** What about the “Cmax,u” value (rat PO 100 mg/kg) of the same molecule?
**A.** Its value is 305 nM.

**Q.** And the “P-gp ER” value (P-gp)?
**A.** The value was 1.49.

**Q.** What about the MRT at 24 h (in vivo [6]; in vivo, 1 mg/kg) of the same molecule?
**A.** Its MRT at 24 h is 1.8 h.

**Q.** And the Vd at 24 h (in vivo [6]; plasma, 1 mg/kg)?
**A.** Its Vd at 24 h is 1.68 L/kg.

**Q.** What about the fraction unbound (in vitro [7]) of the same molecule?
**A.** Its fraction unbound is 0.16.

**Q.** What about the bioavailability (in vivo [8]; in vivo) of the same molecule?
**A.** The bioavailability was 68%.

**Q.** What about the Tmax at 24 h (in vivo [8]; plasma) of the same molecule?
**A.** The Tmax at 24 h was 0.75 h.

**Q.** And the fraction unbound (in vitro [9])?
**A.** Its fraction unbound is 0.13.

**Q.** What about the “Brain Unbound” value [10] of the same molecule?
**A.** The value was 17.4 nM.

**Q.** And the “Plasma Unbound” value [10]?
**A.** The value was 26.9 nM.

**Q.** And the fraction unbound at 6 h, 5 µM (in vitro [11])?
**A.** The fraction unbound at 6 h, 5 µM was 0.09.

**Q.** And the fraction unbound (in vitro [12])?
**A.** The fraction unbound was 0.13.

**Q.** And the fraction unbound (in vitro [13])?
**A.** The fraction unbound was 0.2.

**Q.** What does the source list for `O=S(=O)(c1cnc(CO)s1)N1CCC(c2cn3ncnc3cc2Cl)CC1`?
**A.** fraction unbound at 6 h, 5 µM (in vitro [4]): 0.16; fraction unbound at 6 h, 5 µM (in vitro [5]): 0.17; AUC(0-inf) (in vivo [6]; in vivo): 276 ng·h/mL; MRT at 24 h (in vivo [6]; in vivo, 1 mg/kg): 1.49 h; clearance (in vivo [6]; plasma, 0.2 mg/kg): 12 mL/min/kg; Vd at 24 h (in vivo [6]; plasma, 1 mg/kg): 1.1 L/kg; half-life at 24 h (in vivo [6]; plasma, 1 mg/kg): 1.47 h; Predicted rat CLhep [14]: 16 mL/min/kg; fraction unbound at 6 h, 5 µM (in vitro [11]): 0.12

**Q.** Which MRT at 24 h (in vivo [6]; in vivo, 1 mg/kg) does the source give for `Cc1ncc(S(=O)(=O)N2CCC(c3cn4ncnc4cc3Cl)CC2)o1` here?
**A.** The MRT at 24 h was 1.3 h.

**Q.** What about the Vd at 24 h (in vivo [6]; plasma, 1 mg/kg) of the same molecule?
**A.** The Vd at 24 h was 2.37 L/kg.

**Q.** Which Vd (in vivo [6]; in vivo) does the source give for `[2H]C1([2H])CC(c2cn3ncnc3cc2Cl)CC([2H])([2H])N1S(=O)(=O)c1cnc(C)o1` here?
**A.** Its Vd is 1.3 L/kg.

Source: article PMC11345818 (Journal of Medicinal Chemistry, 2024)
